# From PubChem BioAssay AID463075 (University of Pittsburgh Molecular Library Screening Center, 2010)
# Only a part is listed here, and it is no random draw. Some of these compounds have results that are not shown, active ones among them. Activity calls are given as the source filed them.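 Rule for the calls: active = activation, meaning protection from cell death, of at least 50% relative to plate controls; inactive = activation below 50%.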
# Assay: rescue of FADD-deficient Jurkat cells from TNF-alpha death – single concentration, primary screen (AID 463075);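 note: necroptosis triggered by 40 ng/mL TNF-alpha added together with compound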
# Details: Jurkat FADD-/- TNF necroptosis rescue, ATP luminescence, 24 h; at 10 µM; active compounds read high; 0 = TNF only, 100 = no-TNF cells
row,Structure (SMILES),activation (protection from cell death)
1,Cc1ccccc1C(=O)NCC1(N2CCCCC2)CCCCC1,inactive: 0.175%
2,CN(C)C1CCCC1OC(=O)C(O)(c1ccccc1)c1ccccc1 (stereo unspecified),inactive: 1.91%
3,C=CCN1CCN(CCOC(=O)C(O)(c2ccccc2)c2ccccc2)CC1,inactive: 0.349%
4,CCN1CCCC(OC(=O)C2(O)c3ccccc3C=Cc3ccccc32)C1 (stereo unspecified),inactive: 3%
5,O=C(NCC1(N2CCCCC2)CCCCC1)c1cc([N+](=O)[O-])ccc1Cl,inactive: 1.17%
6,CC(C)N1C(=O)CC2(CCN(CCOC(=O)C(O)(c3ccccc3)c3ccccc3)CC2)C1=O,inactive: -3.72%
7,CCN(CC)CC(C)C(C)OC(=O)C(O)(c1ccccc1)c1ccccc1 (stereo unspecified),inactive: 7.81%
8,O=C(OC1CN2CCC1CC2)C(CO)(c1ccccc1)c1ccccc1 (stereo unspecified),inactive: 0.0536%
9,COc1ccc(Br)c(C(=O)NCC2(N3CCCCC3)CCCCC2)c1,inactive: -0.174%
10,CN(C)c1cccc(C(=O)NCC2(N(C)C)CCCCC2)c1,inactive: 0.754%
11,COc1cccc(C(=O)NCC2(N3CCCCC3)CCCCC2)c1,inactive: 0.577%
